The record followed here is BindingDB's records for doi:10.1016/S0893-133X(02)00346-9 (Eli Lilly, 2002).

Amino acid sequences for entries named in this document (tags omitted).
UniProt P23975, whole entry: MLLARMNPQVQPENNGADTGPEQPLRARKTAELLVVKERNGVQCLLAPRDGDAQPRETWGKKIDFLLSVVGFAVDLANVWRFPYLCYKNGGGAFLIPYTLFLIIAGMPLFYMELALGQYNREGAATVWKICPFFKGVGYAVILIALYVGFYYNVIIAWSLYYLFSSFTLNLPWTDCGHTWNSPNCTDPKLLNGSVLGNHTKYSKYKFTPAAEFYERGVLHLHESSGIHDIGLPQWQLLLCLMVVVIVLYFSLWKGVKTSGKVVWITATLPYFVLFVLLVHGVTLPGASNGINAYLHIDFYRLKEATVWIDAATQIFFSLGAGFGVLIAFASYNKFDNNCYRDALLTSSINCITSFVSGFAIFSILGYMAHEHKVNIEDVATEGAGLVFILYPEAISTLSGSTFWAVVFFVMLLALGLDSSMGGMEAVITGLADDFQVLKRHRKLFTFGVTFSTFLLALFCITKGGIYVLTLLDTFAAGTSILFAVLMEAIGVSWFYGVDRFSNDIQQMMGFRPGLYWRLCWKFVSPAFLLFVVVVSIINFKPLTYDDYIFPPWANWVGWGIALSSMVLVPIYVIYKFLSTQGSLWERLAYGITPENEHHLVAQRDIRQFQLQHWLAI
UniProt Q01959, whole entry: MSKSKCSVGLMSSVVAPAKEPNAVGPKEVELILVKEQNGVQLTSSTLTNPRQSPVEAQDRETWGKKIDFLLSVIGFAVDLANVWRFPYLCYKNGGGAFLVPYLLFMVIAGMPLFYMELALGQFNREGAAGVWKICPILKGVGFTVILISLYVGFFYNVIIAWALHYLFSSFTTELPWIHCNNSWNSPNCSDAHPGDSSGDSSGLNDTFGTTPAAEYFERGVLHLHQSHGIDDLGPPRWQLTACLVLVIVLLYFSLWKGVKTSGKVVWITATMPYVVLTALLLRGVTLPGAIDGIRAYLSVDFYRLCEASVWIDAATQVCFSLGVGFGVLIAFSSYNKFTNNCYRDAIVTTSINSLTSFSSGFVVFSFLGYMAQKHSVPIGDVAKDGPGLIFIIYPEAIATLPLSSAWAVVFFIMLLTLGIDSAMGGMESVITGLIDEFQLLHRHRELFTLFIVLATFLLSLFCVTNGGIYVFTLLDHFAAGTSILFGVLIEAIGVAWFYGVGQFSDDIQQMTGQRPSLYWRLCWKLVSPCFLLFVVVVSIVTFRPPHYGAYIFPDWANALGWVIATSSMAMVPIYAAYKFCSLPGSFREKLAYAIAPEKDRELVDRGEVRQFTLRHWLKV

The target of assay [1] is Sodium-dependent noradrenaline transporter (Homo sapiens, UniProt P23975).
Assay [2] concerns the target Sodium-dependent dopamine transporter (Homo sapiens, UniProt Q01959).

As for `CN(C)CCCN1c2ccccc2CCc2ccccc21`, the figures for the Ki in assay [1] and in assay [2] were 98 nM and over 10 µM, respectively.
